Measured values: patent publication US6849732B2, “Metalloproteinase inhibitors, pharmaceutical compositions containing them and their pharmaceutical uses, and methods and intermediates useful for their preparation” (Agouron Pharmaceuticals, Inc., priority 1995, dated 2005)

Sequences of proteins named here, by UniProt entry; tags and fusion partners are left off. Residues count along the entry.
UniProt P08253, 110-660 limits assumed: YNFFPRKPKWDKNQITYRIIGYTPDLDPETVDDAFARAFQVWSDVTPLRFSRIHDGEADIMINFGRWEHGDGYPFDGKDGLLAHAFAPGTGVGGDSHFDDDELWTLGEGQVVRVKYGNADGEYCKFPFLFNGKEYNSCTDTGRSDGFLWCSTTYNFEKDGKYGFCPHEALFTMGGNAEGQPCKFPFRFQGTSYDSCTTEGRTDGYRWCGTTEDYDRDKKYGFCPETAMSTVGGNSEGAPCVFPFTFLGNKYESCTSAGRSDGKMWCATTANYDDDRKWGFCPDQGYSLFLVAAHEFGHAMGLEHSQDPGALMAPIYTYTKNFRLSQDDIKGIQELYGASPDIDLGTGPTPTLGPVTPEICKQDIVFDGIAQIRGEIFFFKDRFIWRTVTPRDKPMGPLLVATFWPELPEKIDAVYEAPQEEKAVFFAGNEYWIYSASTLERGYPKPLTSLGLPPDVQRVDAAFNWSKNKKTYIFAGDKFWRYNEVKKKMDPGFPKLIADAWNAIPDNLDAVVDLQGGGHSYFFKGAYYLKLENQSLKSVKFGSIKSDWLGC
UniProt P09237, 95-267 limits assumed: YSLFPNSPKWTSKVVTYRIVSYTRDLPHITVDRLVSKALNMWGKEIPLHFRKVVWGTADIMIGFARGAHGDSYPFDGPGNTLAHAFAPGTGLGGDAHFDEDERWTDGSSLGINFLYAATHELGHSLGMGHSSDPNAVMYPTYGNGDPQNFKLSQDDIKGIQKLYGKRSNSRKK
UniProt P03956, 100-469 limits assumed: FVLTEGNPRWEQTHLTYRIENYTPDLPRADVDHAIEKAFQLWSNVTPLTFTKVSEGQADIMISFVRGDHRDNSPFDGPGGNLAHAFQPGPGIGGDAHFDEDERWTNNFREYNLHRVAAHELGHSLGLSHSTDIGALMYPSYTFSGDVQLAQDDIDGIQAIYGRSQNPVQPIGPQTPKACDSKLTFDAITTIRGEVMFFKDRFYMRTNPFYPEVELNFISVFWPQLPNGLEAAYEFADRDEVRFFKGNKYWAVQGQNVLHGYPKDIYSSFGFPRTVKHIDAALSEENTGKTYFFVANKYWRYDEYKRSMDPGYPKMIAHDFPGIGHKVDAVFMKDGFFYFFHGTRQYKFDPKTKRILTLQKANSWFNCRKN
UniProt P08254, 100-477 limits assumed: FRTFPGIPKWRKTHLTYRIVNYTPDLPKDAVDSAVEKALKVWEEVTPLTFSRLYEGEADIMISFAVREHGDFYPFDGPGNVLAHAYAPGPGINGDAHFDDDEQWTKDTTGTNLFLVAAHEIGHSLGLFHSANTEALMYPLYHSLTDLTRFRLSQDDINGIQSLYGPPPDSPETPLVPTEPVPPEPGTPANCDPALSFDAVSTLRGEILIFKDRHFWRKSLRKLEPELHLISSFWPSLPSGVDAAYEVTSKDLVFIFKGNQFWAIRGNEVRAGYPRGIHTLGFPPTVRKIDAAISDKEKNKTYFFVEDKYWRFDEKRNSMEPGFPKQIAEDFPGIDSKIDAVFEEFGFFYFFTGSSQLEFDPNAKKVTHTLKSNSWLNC

What was measured:
Format in all cases: biochemical
Coll3 = Coll3 (Homo sapiens, UniProt P45452); assay: MCA fluorogenic enzyme assay, competitive inhibition analysis (Ki,app), Coll3; conditions: read-out: Enzyme Inhibition Constants (K1) Coll3, MCA peptide substrate, 37° C., pH 7.5
gelatinase A (HG72kD) = gelatinase A (HG72kD) (Homo sapiens, UniProt P08253); assay: MCA fluorogenic enzyme assay, competitive inhibition analysis (Ki,app), gelatinase A; conditions: read-out: Enzyme Inhibition Constants (K1) HG72kD, MCA peptide substrate, 37° C., pH 7.5
matrilysin (Matr.) = matrilysin (Matr.) (Homo sapiens, UniProt P09237); assay: MCA fluorogenic enzyme assay, competitive inhibition analysis (Ki,app), matrilysin; conditions: read-out: Enzyme Inhibition Constants (K1) Matr., MCA peptide substrate, 37° C., pH 7.5
HFC = HFC (Homo sapiens, UniProt P03956); assay: MCA fluorogenic enzyme assay, competitive inhibition analysis (Ki,app), HFC; conditions: read-out: Enzyme Inhibition Constants (K1) HFC, MCA peptide substrate, 37° C., pH 7.5
stromelysin (HSLN) = stromelysin (HSLN) (Homo sapiens, UniProt P08254); assay: MCA fluorogenic enzyme assay, competitive inhibition analysis (Ki,app), stromelysin; conditions: read-out: Enzyme Inhibition Constants (K1) HSLN, MCA peptide substrate, 37° C., pH 7.5

Row | Compound | Ki (Coll3) | Ki (gelatinase A (HG72kD)) | Ki (matrilysin (Matr.)) | Ki (HFC) | Ki (stromelysin (HSLN))
1 | CS(=O)(=O)N1CCN(S(=O)(=O)c2ccc(Oc3ccc(Cl)cc3)cc2)C(C(=O)NO)C1 (stereo not drawn) | 0.015 nM | 0.022 nM | 44 nM | 5.5 nM | 0.15 nM
2 | O=C(NO)[C@H]1CNCCN1S(=O)(=O)c1ccc(Oc2ccc(F)cc2)cc1 [Example 10(b), 2(R)-N-hydroxy-1-(4-(4-fluorophenoxy)benzenesulfonyl)-piperazine-2-carboxamide hydrochloride] | 0.013 nM | 0.41 nM | 2060 nM | 176 nM | 1.9 nM
3 | CN1CCN(S(=O)(=O)c2ccc(Oc3ccc(Br)cc3)cc2)C(C(=O)NO)C1 (stereo not drawn) | 0.022 nM | 0.035 nM | 1860 nM | 257 nM | 1.4 nM

Where a name gives a salt, the structure may show the parent alone.
